Results on 34 compounds are retold here after PubChem BioAssay AID743266 (National Center for Advancing Translational Sciences (NCATS), 2014).

Chains of the proteins cited; added tags and fusions are not shown.
UniProt Q03431, whole entry: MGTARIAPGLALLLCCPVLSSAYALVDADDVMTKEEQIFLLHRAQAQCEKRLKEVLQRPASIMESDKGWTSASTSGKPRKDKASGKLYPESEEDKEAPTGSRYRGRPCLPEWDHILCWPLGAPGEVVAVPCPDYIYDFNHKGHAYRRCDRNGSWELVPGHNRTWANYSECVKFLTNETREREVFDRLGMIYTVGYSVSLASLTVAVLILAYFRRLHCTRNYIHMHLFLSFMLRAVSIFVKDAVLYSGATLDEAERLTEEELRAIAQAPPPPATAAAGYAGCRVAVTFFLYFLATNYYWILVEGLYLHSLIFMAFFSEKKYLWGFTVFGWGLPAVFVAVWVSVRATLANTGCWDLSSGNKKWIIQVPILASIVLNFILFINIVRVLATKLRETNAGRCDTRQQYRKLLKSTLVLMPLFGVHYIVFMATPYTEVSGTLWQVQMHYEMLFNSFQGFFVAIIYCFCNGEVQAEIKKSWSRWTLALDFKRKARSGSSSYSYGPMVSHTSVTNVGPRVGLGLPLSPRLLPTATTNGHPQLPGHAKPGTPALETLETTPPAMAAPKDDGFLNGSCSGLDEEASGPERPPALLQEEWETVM

This is a selection; strong and weak results do not stand in their true shares. Activity calls are given as the source filed them. Calls follow the shape of the dose curve; as a rule, active = well fitted activation curve with a large enough effect; inconclusive = small, poorly fitted or top-dose-only effect, or another doubt; inactive = no such curve, though single readings can be large or run the other way.

The assay has as its target Parathyroid hormone/parathyroid hormone-related peptide receptor (Homo sapiens) (UniProt Q03431). The assay can be described thus: qHTS for PTHR1 Agonists: Primary Screen. Also: nearly all actives have a fitted effect of over 55% in size. The settings on record: HEK293 GP2 PTHR1 cells, GloSensor cAMP luminescence, 1 h; activation: at 115 µM (top of the series) unless noted.
Regarding `O=c1[nH]c2ccccc2n1C1CCN(C(c2cc3ccccc3o2)c2nnnn2C2CCCC2)CC1` (centres undefined), the activation was inactive: -10%. The same measure, in the same setting: the figure for `CCCOc1ccc(C(=O)NCC2(N(C)C)CCCCC2)cc1` is inactive: -10.7%; for `COc1cc(C(=O)NCC2(N3CCOCC3)CCCCC2)cc(OC)c1OC` it is “inactive”; for `COc1cc(OC)cc(C(=O)NCC2(N3CCOCC3)CCCCC2)c1` it is inactive: -1.45%. The same measure, in the same setting: the value for `COc1cccc(C(c2nnnn2C2CCCC2)N2CCC(n3c(=O)[nH]c4ccccc43)CC2)c1OC` (centres undefined) was inactive: -20.1%; that for `COc1cccc(C(=O)N(c2cc(C)cc(C)c2)C2CCN(C(=O)OC(C)(C)C)CC2)c1` was inactive: -8.62%.

In the case of `CCC(CO)(C(=O)OC1CN2CCC1CC2)c1ccccc1` (centres undefined), the outcome was “inactive [at 57.5 µM]”.

In the case of `CN1CCC(Nc2ccc(Cl)cc2)CC1`, the activation entry was “inactive”.

Consider `CCCCn1nnnc1C(c1ccccc1)N1CCC(n2c(=O)[nH]c3ccccc32)CC1` (centres undefined), for which the activation was inactive: -18.4%. On the same count and under the same terms, the entry for `COc1cc(C(=O)NCC2(N3CCOCC3)CCCCC2)cc(OC)c1C` is “inactive”; for `O=C(NCC1(N2CCOCC2)CCCCC1)c1cc(Br)ccc1Cl` it is “inactive”; for `O=c1[nH]c2ccccc2n1C1CCN(C(c2cccs2)c2nnnn2C2CCCCC2)CC1` (centres undefined) it is inactive: -15.6%. `COc1ccc(C(=O)NCC2(N3CCOCC3)CCCCC2)cc1OC`: the activation result was “inactive”. Still for that read-out and setting: the value for `O=c1[nH]c2ccccc2n1C1CCN(C(c2ccnc3ccccc23)c2nnnn2C2CCCC2)CC1` (centres undefined) was “inactive”; that for `CCOC(=O)N1CCC(Nc2ccc(C)cc2)CC1` was “inactive”; that for `COc1cccc(C(c2nnnn2C(C)(C)C)N2CCC(n3c(=O)[nH]c4ccccc43)CC2)c1OC` (centres undefined) was “inactive”. Same read-out and setting: the value for `N/C(=N\O)c1c(N)no[n+]1[O-]` was inactive: 17.9% [at 57.5 µM]. On the same count and under the same terms, the entry for `CCc1cc(C(=O)NCC2(N3CCCCC3)CCCCC2)sc1C` is “inactive”; for `O=C(OC1CN2CCC1CC2)C1c2ccccc2C=Cc2ccccc21` (centres undefined) it is “inactive”; for `O=c1[nH]c2ccccc2n1C1CCN(C(c2cccs2)c2nnnn2C2CCCC2)CC1` (centres undefined) it is inactive: -14.5%. As for `O=C(O)c1cccc(Nc2c([N+](=O)[O-])cc([N+](=O)[O-])cc2[N+](=O)[O-])c1`, the activation is inactive: -3.95%. Same read-out and setting: the value for `CCCCn1nnnc1C(c1cccc(OC)c1OC)N1CCC(n2c(=O)[nH]c3ccccc32)CC1` (centres undefined) was inactive: -20.1%; that for `N#Cc1ccc(C(=O)NCC2(N3CCCCC3)CCCCC2)cc1` was inactive: -15.4%.

As to `O=C(NCC1(N2CCOCC2)CCCCC1)c1ccccc1[N+](=O)[O-]`, the activation is inactive: -9.97%.

As for `CC(C)(C)OC(=O)N1CCC(N(C(=O)c2ccccc2)c2ccc(Cl)cc2)CC1`, the activation is inactive: -19.1%. For `O=C(NCC1(N2CCOCC2)CCCCC1)c1ccc([N+](=O)[O-])cc1`, the activation result is “inactive”. Still for that read-out and setting: the figure for `CCOC(=O)C(CC)C1=NC(C)(C)Cc2ccccc21.O=[N+]([O-])c1cc([N+](=O)[O-])c(O)c([N+](=O)[O-])c1` (centres undefined) is inactive: -23.6%.

`CN(C)C1(CNC(=O)c2cccc(C#N)c2)CCCCC1`: the activation result was “inactive”. On the same count and under the same terms, the figure for `c1ccc(CN2CCC(Nc3ccccc3)CC2)cc1` is inactive: -5.37% [at 57.5 µM]; for `O=c1[nH]c2ccccc2n1C1CCN(C(c2ccccc2)c2nnnn2C2CCCC2)CC1` (centres undefined) it is inactive: -12.7%.

As to `CCCN1CCC(Nc2cc(OC)cc(OC)c2)CC1`, the activation was inactive: -1.26%. Same read-out and setting: the entry for `Cc1cc(N(CCCl)CCCl)ccc1C=O` is “inactive”. With `O=C(NCC1(N2CCOCC2)CCCCC1)c1ccccc1`, the activation entry is “inactive”. For the compound `CC(C)(C)n1nnnc1C(c1cccc2ccccc12)N1CCC(n2c(=O)[nH]c3ccccc32)CC1` (centres undefined), the activation was inactive: -18.5%.
